The values below come from PMC6968775, “Assessment of contribution of BCRP to intestinal absorption of various drugs using portal‐systemic blood concentration difference model in mice” (Pharmacology Research & Perspectives, 2020).

The structures appear in SMILES notation. Like-named read-outs stand apart in the source and are kept apart here.

For data set [1] the following is noted: Mdr1a/1b(−/−) mice.

Take `O=C(O)c1cn(C2CC2)c2cc(N3CCNCC3)c(F)cc2c1=O` [ciprofloxacin, Ciprofloxacin]: where the note is “Table 5 summary, WT mice, oral administration”, the “k a, wt” value came to 1.63. This molecule also yielded a k a (wild‐type mice, p.o. (ciprofloxacin 1, nitrofurantoin 2, topotecan 1, sulfasalazine 5 mg/kg)) of 1.63 h⁻¹ and a k a in data set [1] (p.o. (ciprofloxacin 1, nitrofurantoin 2, topotecan 1, sulfasalazine 5 mg/kg)) of 2.18 h⁻¹. Further, in data set [1] (Table 5 summary, oral administration), the “k a, P‐gp” value came out at 2.18.
